For one experiment, the target named is Histone deacetylase 2 (Homo sapiens, UniProt Q92769).
A further experiment concerns the target Histone deacetylase 4 (Homo sapiens, UniProt P56524). The experiment in a line: IC50 Assay: IC50 measurements were conducted by BPS Biosciences (Table 1) or by Nanosyn (Table 1A) with an established fluorescence assay.

Chains of the proteins cited; added tags and fusions are not shown. Lines headed by an entry give the natural chain unless they say otherwise; changes in a name come on top.
UniProt Q92769, whole entry: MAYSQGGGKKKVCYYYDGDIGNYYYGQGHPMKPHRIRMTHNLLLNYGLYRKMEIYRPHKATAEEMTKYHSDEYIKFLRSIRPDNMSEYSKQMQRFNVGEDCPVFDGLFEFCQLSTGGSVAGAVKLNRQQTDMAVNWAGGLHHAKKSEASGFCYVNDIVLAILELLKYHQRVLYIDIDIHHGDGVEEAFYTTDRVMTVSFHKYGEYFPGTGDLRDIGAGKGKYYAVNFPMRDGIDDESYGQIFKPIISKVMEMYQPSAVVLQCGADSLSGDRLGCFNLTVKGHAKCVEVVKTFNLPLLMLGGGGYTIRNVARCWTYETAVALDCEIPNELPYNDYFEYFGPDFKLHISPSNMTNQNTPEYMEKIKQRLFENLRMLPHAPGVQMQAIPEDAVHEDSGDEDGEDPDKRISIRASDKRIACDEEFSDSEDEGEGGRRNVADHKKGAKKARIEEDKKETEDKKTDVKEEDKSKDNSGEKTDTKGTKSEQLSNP
UniProt P56524: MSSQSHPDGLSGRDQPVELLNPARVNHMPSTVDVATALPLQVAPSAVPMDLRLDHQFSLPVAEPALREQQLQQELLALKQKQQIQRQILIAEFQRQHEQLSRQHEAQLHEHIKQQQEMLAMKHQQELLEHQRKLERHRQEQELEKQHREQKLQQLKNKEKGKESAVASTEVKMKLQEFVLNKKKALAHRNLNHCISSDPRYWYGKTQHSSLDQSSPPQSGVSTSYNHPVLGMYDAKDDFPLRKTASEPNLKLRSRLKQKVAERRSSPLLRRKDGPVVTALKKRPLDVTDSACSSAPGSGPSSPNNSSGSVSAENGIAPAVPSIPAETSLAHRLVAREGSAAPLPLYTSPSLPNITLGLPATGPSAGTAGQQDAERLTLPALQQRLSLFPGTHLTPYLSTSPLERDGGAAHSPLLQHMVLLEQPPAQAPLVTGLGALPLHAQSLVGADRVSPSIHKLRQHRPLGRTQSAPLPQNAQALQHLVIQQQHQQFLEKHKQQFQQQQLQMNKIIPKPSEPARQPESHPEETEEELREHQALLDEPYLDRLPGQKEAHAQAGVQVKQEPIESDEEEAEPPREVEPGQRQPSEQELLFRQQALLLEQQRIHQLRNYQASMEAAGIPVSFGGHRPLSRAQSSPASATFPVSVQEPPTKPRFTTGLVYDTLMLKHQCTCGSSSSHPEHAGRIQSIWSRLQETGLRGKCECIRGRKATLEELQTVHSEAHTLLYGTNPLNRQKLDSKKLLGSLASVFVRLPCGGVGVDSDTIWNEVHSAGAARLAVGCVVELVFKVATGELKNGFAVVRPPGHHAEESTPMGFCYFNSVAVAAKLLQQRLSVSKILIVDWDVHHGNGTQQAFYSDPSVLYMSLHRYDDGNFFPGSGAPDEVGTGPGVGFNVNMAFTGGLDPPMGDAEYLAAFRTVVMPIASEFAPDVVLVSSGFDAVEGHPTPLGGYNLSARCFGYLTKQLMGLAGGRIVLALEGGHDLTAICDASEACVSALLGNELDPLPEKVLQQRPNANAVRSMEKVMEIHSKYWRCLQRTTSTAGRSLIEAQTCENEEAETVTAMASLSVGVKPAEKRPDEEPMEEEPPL

Here are results for 2 compounds from ChEMBL document CHEMBL5728890, “HDAC6 inhibitors and imaging agents” (2021).

`CN(Cc1ccc(/C=C/C(=O)NO)cc1F)CC12CC3CC(CC(C3)C1)C2`: inhibition on Histone deacetylase 2 was half-maximal at 73 nM (IC50).

The compound `CN1CCc2c(c3ccccc3n2Cc2ccc(C(=O)NO)cc2)C1` [TUBASTATIN A] registered a 50% inhibitory concentration (IC50) against Histone deacetylase 4 of over 30 nM.
